# Values of other authors, collected in publication PMC4475445 (Journal of immunology (Baltimore, Md. : 1950), 2015).
# Sequences of proteins named here, by UniProt entry; tags and fusion partners are left off. A change or cut given only in a name is not applied to a line headed by its entry.
# UniProt Q06187: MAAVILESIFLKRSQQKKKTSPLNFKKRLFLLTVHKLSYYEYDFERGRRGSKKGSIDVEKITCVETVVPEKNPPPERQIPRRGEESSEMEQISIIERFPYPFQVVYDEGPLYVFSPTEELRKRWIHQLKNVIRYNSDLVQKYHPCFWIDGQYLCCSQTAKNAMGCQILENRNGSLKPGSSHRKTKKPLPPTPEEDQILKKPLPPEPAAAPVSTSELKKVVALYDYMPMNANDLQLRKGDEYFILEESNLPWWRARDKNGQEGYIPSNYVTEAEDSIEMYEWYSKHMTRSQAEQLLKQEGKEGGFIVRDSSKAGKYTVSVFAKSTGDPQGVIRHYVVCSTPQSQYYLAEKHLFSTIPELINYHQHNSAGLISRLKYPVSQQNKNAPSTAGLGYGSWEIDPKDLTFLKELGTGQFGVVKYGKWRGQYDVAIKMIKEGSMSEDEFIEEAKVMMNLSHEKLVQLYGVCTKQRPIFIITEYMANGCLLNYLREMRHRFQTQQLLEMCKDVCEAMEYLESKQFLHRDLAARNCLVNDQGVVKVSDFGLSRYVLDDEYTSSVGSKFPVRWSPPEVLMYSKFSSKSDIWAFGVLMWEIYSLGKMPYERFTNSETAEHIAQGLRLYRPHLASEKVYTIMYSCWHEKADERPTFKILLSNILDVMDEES
# Target: Btk (Homo sapiens, UniProt Q06187)
# Conditions: read-out: IC50 Btk; enzymatic activity; cited from earlier work
smiles,measurement,value
C=CC(=O)Nc1cccc(Nc2nc(Nc3ccc(OCCOC)cc3)ncc2F)c1 [CC-292],IC50,5.9 nM
